According to patent publication US20240384323:

Test system: T1, IQ Probe (internally quenched linear polypeptide containing the S01 substrate)
T1 sequence: LSGRSDNH

Substance: Recombinant human uPA (urokinase-type plasminogen activator; R&D Systems 1310-SE)
- kcat/KM of the S01 substrate, IQ Probe relative to C225-S01: 4.6× and 3.5× times, respectively
